# Target: Aldo-keto reductase family 1 member B1 (Bos taurus, UniProt P16116)
# Assay: Inhibition of bovine lens aldose reductase with DL-glyceraldehyde as substrate
smiles,measurement,value
COc1ccc2c(C(=S)N(C)CC(=O)O)cccc2c1C(F)(F)F [TOLRESTAT],IC50,35 nM
